Laboratory results taken from PMC8754651.

Biological target: human TFIIH p62 PH domain (PH-D) (residues 1–108) (human) (UniProt P32780)
Assay: NMR titration; unlabeled RPB6 (1−127) added to 50 μM 15N-labeled p62 PH-D, molar ratios 1:0 to 1:2.50; 1H,15N-HSQC; 20 mM potassium phosphate (pH 6.8), 25 mM NaCl, 5 mM deuterated DTT, 10% D2O, 32°C

- stoichiometry N: 1
Substance: human RPB6 (residues 1–127), full-length (from UniProt P61218 1-127) (natural protein)
